Literature values, collected in publication PMC11505038, “Kalata B1 Enhances Temozolomide Toxicity to Glioblastoma Cells” (Biomedicines, 2024).

System: blood–brain barrier
Details: mouse model; cited from earlier work

Q: For chlorotoxin, which “Passage across the blood–brain barrier” value is on record?
A: did cross the blood–brain barrier
